The target of the test is Acetylcholinesterase (Electrophorus electricus, UniProt O42275). The test can be described thus: Inhibition of electric eel AChE preincubated for 15 mins followed by addition of acetylthiocholine iodide as substrate measured after 30 mins by Ellman's microplate assay.

By UniProt entry, the sequences of proteins in these tests, tags left out. Where a name states a change or a piece, a line headed by the entry shows the natural chain unless it says otherwise.
UniProt O42275: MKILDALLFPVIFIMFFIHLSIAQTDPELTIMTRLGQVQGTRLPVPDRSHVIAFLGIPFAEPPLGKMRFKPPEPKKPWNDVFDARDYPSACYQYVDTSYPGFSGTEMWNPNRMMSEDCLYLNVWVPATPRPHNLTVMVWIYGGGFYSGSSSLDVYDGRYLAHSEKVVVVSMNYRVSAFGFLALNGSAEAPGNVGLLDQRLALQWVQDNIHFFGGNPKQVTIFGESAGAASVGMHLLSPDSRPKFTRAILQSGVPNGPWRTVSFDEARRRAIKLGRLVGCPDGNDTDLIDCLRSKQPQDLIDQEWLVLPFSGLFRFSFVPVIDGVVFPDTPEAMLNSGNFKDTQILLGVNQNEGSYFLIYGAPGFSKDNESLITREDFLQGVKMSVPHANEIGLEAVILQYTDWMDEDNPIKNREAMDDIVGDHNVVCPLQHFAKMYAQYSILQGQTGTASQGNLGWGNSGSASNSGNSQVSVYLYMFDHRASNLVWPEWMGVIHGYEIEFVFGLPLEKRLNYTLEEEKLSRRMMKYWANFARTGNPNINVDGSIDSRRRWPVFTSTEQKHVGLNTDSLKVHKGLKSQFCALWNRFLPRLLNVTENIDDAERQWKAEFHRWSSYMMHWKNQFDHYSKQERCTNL

As usually defined, the IC50 is the midpoint of a concentration-inhibition curve. Lower therefore signals greater potency. The molecule `CNC(=O)Oc1ccc2c(c1)[C@]1(C)CCN(C)[C@@H]1N2C` [PHYSOSTIGMINE] yielded a concentration for half-maximal inhibition (IC50) of 160 nM.

Values taken from ChEMBL document CHEMBL3826956, “Cholinesterase inhibitory activity of isoquinoline alkaloids from three Cryptocarya species (Lauraceae)” (Bioorg Med Chem, 2016).
